Wnt act – Wnt/beta-catenin pathway activation; hit rate 1.2% among 300,000; activation, % at 9.35 µM; Wnt/beta-catenin reporter cell assay, activator, plate reader; AID 743398; in the data active = activation above about 30%, passing the limit was not always enough; inconclusive = no clear call, values can overlap the other calls;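 note: 0% = neutral control wells and 100% = positive control wells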
Yeast UUG start – modulators of start codon recognition fidelity in yeast; AID 602363; activity score, % at 18.7 µM; S. cerevisiae UUG-firefly luciferase reporter, luminescence/redox ratio; 0.13% of 350,000 active;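 active = replicate mean at a twofold rise or more, about +100% in these data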;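 note: firefly luciferase made from a UUG start codon reports start codon fidelity; reporter light over untreated wells divided by growth signal over untreated wells; some hits fall short of that in this replicate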
PglD DTNB – PglD (C. jejuni) enzyme inhibition. hit rate 0.098% among 360,000. inhibition, % at 12.5 µM. purified PglD enzyme, DTNB colorimetric CoA detection; in the data active = inhibition above about 16%, passing the limit was not always enough; inconclusive = no clear call, values can overlap the other calls
esBAF inh – inhibitors of esBAF chromatin remodeling in mouse ES cells; Bmi1-luciferase knock-in reporter, 24 h; 100% = twice the neutral-well signal; reporter increase, % at 12.5 µM; hit rate 2% among 350,000; AID 602393; in the data active = activation above about 40%; inconclusive = no clear call, values can overlap the other calls;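 note: 0% = median of the plate's neutral control wells and 100% = double that signal; a rise in the Bmi1 reporter signal indicates esBAF inhibition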
MITF TRPM1 HTS – MITF TRPM1 promoter activation in melanoma cells | activation, % at 12.5 µM | hit rate 0.75% among 300,000 | SK-MEL-5 TRPM1-promoter luciferase, 24 h; % of positive control, neutral wells = 0;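 active = mean activation of at least 80% with every replicate also reaching 80%; inconclusive = mean reaches 80% but some replicate falls short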;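 note: 0% = neutral control wells and 100% = parthenolide positive control wells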
miR122 inh – inhibitors of miR-122 in Huh7 cells; Huh7 miR-122 Renilla luciferase sensor, 48 h; neutral wells = 0, positive control = 100; activation (reporter increase), % at 12.5 µM; hit rate 0.3% among 340,000;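 active = mean replicate activation score at least 90 and every replicate individually at or above 90; inconclusive = only one of the two criteria met; inactive = neither criterion met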;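 note: higher luciferase means less miR-122 activity so hits act as miR-122 inhibitors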
esBAF Ring1 qPCR – confirmation of esBAF inhibitors: Ring1 de-repression in mouse ESCs; mouse ESC E14, Ring1 mRNA RT-qPCR fold change; shares compounds with esBAF inh; 550 tested, under 10 active; AID 743176; fold change at 33 µM;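 active = Ring1 gene expression raised more than 2-fold over untreated cells in both replicates at either tested dose; inconclusive = only one replicate above 2-fold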;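 note: Ring1 transcript normalised to actin housekeeping signal by TaqMan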
esBAF Fgf4 qPCR – esBAF inhibition confirmed by Fgf4 repression | Fgf4 expression fold change at 33 µM | hit rate 4% among 550 | mouse ESC E14, Fgf4 mRNA qPCR fold change; hits give low values | shares compounds with esBAF inh;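 active = Fgf4 expression under 0.8 fold of control in both repeat measurements at one or both tested doses; inconclusive = under 0.8 fold in just a single repeat measurement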;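 note: Fgf4 transcript normalised to actin in duplex TaqMan qPCR; cells exposed to compound for 24 h before lysis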
Bmi1 derepress – esBAF inhibition confirmed by Bmi1 de-repression; shares compounds with esBAF inh; mouse ESE14 ES cells, Bmi1 mRNA qPCR fold; hits give high values; fold change at 33 µM; 550 tested, under 10 active; AID 743180;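 active = Bmi1 expression fold change above 6 at either tested concentration, seen in replicate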;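 note: higher fold means more Bmi1 de-repression and stronger esBAF inhibition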
A549 tox SP – cytotoxicity in A549 cells | cell viability change % (negative = cytotoxic), % at 25 µM, hits read low | shares compounds with esBAF inh | 550 tested, under 10 active | plate reader; call rule not given here
HepG2 tox SP – kills or reduces viability of HepG2 cells. shares compounds with esBAF inh. HepG2 cytotoxicity, plate reader; hits give low values. activity change, negative = inhibition, % at 25 µM. hit rate 4% among 550. AID 743189; in the data active = activity change below about -50%
HEK293 cytotox SP – HEK293 cell cytotoxicity at single point; hit rate 3% among 550; plate reader; shares compounds with esBAF inh; activity change, negative = inhibition, % at 25 µM, hits read low; in the data active = activity change below about -38%, passing the limit was not always enough
PglD inh SP – confirmation of Campylobacter jejuni PglD acetyltransferase inhibitors; AID 743156; inhibition, % at 20 µM; shares compounds with PglD DTNB; Purified C. jejuni PglD, DTNB absorbance 412 nm; 320 tested, under 10 active;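 active = mean inhibition across replicates of at least 20% with every single replicate also at 20% or more; inconclusive = mean inhibition at least 20% but some replicate falls below 20%; inactive = mean inhibition under 20% and not all replicates reach it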;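 note: initial rate of CoA release by acetyl transfer from AcCoA to the UDP-4-amino sugar; 0% = median of neutral control wells and 100% = median of positive control wells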
The depositor's hits bear a star; ? = inconclusive; nt = no result; [ ] = remark or other dose. The list is not random: actives were taken first. Their share in the collection is about 2.8%.

Preview (three entries):
SMILES	Wnt act	Yeast UUG start	PglD DTNB	esBAF inh	MITF TRPM1 HTS	miR122 inh	PglD inh SP	others
CN(C)CC(=O)Nc1ccc2c(c1)[C@H]1C[C@@H](CC(=O)NCc3ccncc3)O[C@@H](CO)[C@H]1O2	nt	-21.2	-5.3	0.5	nt	-3.4[16.7 µM]	nt
Cc1ccc(Nc2nc(Cl)nc(NC(C)(C)C)n2)cc1	10.2	-1.1	-3.3	76.7*	99.9*	-5.9	nt	esBAF Ring1 qPCR=1.08;esBAF Fgf4 qPCR=?;Bmi1 derepress=1.92;A549 tox SP=4.1;HepG2 tox SP=-17.7;HEK293 cytotox SP=-7.1
COc1ccc(CN(C)C[C@H]2Oc3c(NC(=O)c4cc(C)nn4C)cccc3C(=O)N([C@H](C)CO)C[C@@H]2C)cc1	nt	-8.8	2.0	-4.0	nt	58.0[16.7 µM]	nt

The whole of this part, repeating the preview:
SMILES	Wnt act	Yeast UUG start	PglD DTNB	esBAF inh	MITF TRPM1 HTS	miR122 inh	PglD inh SP	others
CN(C)CC(=O)Nc1ccc2c(c1)[C@H]1C[C@@H](CC(=O)NCc3ccncc3)O[C@@H](CO)[C@H]1O2	nt	-21.2	-5.3	0.5	nt	-3.4[16.7 µM]	nt
Cc1ccc(Nc2nc(Cl)nc(NC(C)(C)C)n2)cc1	10.2	-1.1	-3.3	76.7*	99.9*	-5.9	nt	esBAF Ring1 qPCR=1.08;esBAF Fgf4 qPCR=?;Bmi1 derepress=1.92;A549 tox SP=4.1;HepG2 tox SP=-17.7;HEK293 cytotox SP=-7.1
COc1ccc(CN(C)C[C@H]2Oc3c(NC(=O)c4cc(C)nn4C)cccc3C(=O)N([C@H](C)CO)C[C@@H]2C)cc1	nt	-8.8	2.0	-4.0	nt	58.0[16.7 µM]	nt
O=C(CCc1nnc(CCc2c[nH]c3ccccc23)o1)NC1CCC1	29.3	-12.4	-2.0	66.1*	45.2	1.9	nt	esBAF Ring1 qPCR=0.934;esBAF Fgf4 qPCR=0.959;Bmi1 derepress=1.55;A549 tox SP=-0.8;HepG2 tox SP=-31.0;HEK293 cytotox SP=4.4
COc1ccc(NC(=O)Nc2cccc(C)n2)cc1	21.0	-16.2	5.2	66.4*	68.4	nt	nt	esBAF Ring1 qPCR=1.06;esBAF Fgf4 qPCR=0.878;Bmi1 derepress=2;A549 tox SP=-1.2;HepG2 tox SP=-0.7;HEK293 cytotox SP=-7.3
C[C@@H]1CN([C@H](C)CO)C(=O)c2cccc(NC(=O)Nc3ccc4c(c3)OCO4)c2O[C@@H]1CN(C)CC1CCCCC1	nt	-2.8	-1.9	-5.2	nt	6.1[16.7 µM]	nt
CN(c1cccc(NC(=O)c2ccc(C(C)(C)C)cc2)c1)S(C)(=O)=O	-0.2	-9.9	3.5	72.8*	36.9	-3.5	nt	esBAF Ring1 qPCR=1.23;esBAF Fgf4 qPCR=0.816;Bmi1 derepress=2.32;A549 tox SP=11.2;HepG2 tox SP=-23.3;HEK293 cytotox SP=-43.3
Cc1ccc(-c2ccc3c(c2)O[C@@H](CN(C)C(=O)C2CCCCC2)[C@@H](C)CN([C@H](C)CO)S3(=O)=O)cc1	nt	nt	nt	nt	nt	13.2[16.7 µM]	nt
COc1cc(Cl)ccc1OCc1cc(C(=O)N2CCN(C)C(=O)[C@@H]2C)no1	43.5*	-15.8	1.8	95.8*	nt	0.6	nt	esBAF Ring1 qPCR=1.05;esBAF Fgf4 qPCR=0.498*;Bmi1 derepress=1.27;A549 tox SP=-18.0;HepG2 tox SP=-14.6;HEK293 cytotox SP=-20.7
Cc1ccc(CN2CC(C(=O)Nc3cc(C)ccn3)CC2=O)cc1 (centres undefined)	?	-13.7	-1.2	71.8*	22.1	5.4	nt	esBAF Ring1 qPCR=0.576;esBAF Fgf4 qPCR=0.439*;Bmi1 derepress=3.47;A549 tox SP=2.6;HepG2 tox SP=-21.4;HEK293 cytotox SP=-8.6
CCn1c(-c2ccc(N)cc2)nc2ccccc21	11.9	-13.1	9.3	22.0	30.2	-0.5	nt
C=CCn1c(-c2ccc(N)cc2)nc2ccccc21	19.7	-21.7	-1.2	58.4*	59.1	-2.7	nt	esBAF Ring1 qPCR=0.927;esBAF Fgf4 qPCR=1.15;Bmi1 derepress=1.21;A549 tox SP=-17.0;HepG2 tox SP=-0.9;HEK293 cytotox SP=-19.7
COc1cc(CNc2ccc(S(N)(=O)=O)cc2)ccc1OCc1ccccc1F	-0.8	4.2	-5.6	96.0*	nt	-8.6	nt	esBAF Ring1 qPCR=1.07;esBAF Fgf4 qPCR=1.02;Bmi1 derepress=1.95;A549 tox SP=-1.1;HepG2 tox SP=-8.5;HEK293 cytotox SP=-22.5
O=[N+]([O-])c1ccc(O)c(C=Nc2cccc3ccccc23)c1	3.6	-9.2	0.0	-6.9	-37.0	-5.2	nt
O=[N+]([O-])c1ccc(O)c(C=Nc2cccc3ncccc23)c1	2.2	-15.3	22.6*	-2.2	-11.9	-0.8	9.1
CCCCNC(=O)Nc1nnc(-c2ccccc2)o1	nt	-12.1	39.4*	14.0	nt	-0.9	2.0
CC1(C)C(=O)Nc2ccccc2N1C(=O)CSc1nnc2ccccn12	0.3	-27.6	35.4*	nt	-17.5	-3.3	-1.1
COc1cc(CNCCc2c[nH]c3ccccc23)ccc1OCc1ccc(F)cc1	nt	15.4	-2.1	-1.3	-6.8	7.7	nt
COc1cccc(CNCCc2c[nH]c3ccccc23)c1OCc1ccc(F)cc1	nt	-6.6	26.3*	-0.6	-48.1	-4.6	0.7
Cc1ccc(N(CC(=O)NC(C)c2ccccc2)S(=O)(=O)c2c(C)noc2C)cc1 (centres undefined)	0.5	-21.3	27.2*	3.5	13.6	5.1	-5.2
C[C@H]1CN([C@@H](C)CO)C(=O)c2cccc(NS(=O)(=O)c3ccccc3)c2O[C@@H]1CN(C)CC1CCCCC1	nt	9.2	-2.5	1.9	nt	25.3[16.7 µM]	nt
Cn1ncc(C(=O)Nc2ccc(OC(F)(F)F)cc2)c1-n1cccc1	10.5	-14.1	21.3*	-9.1	-5.4	22.0	-4.7
NC(N)=NN=C1CCC(c2ccccc2)CC1 (centres undefined)	-1.5	-17.8	25.2*	-5.2	-6.7	-2.1	2.9
CC(=O)NN=C1CCC(c2ccccc2)CC1 (centres undefined)	-4.6	-14.3	-4.9	nt	3.6	-3.1	nt
CCOc1ccc(N2CC(C(=O)NCCc3ccc(S(N)(=O)=O)cc3)CC2=O)cc1 (centres undefined)	2.6	-14.0	30.7*	-5.8	3.9	-5.7	?
CCOc1ccccc1N1CC(C(=O)NCCc2ccc(S(N)(=O)=O)cc2)CC1=O (centres undefined)	nt	-7.8	1.6	-4.2	0.7	-1.1	nt
CC(=O)C1=C(O)C(=O)N(c2cccc(C(=O)O)c2)C1c1ccc(F)cc1 (centres undefined)	-1.5	-16.5	20.6*	nt	13.4	-8.2	-2.5
CC(=O)C1=C(O)C(=O)N(c2ccc(F)cc2)C1c1ccc(C)cc1 (centres undefined)	1.2	-15.3	-3.1	11.5	1.9	nt	nt
N#Cc1cccc(-c2ccc3c(c2)[C@H]2[C@H](CCN2C(=O)c2ccc4c(c2)OCO4)[C@H](CO)N3)c1	nt	-18.2	1.3	-5.0	nt	-3.1[16.7 µM]	nt
CCC(=O)Nc1ccccc1C(=O)OCC(=O)Nc1ccc(S(N)(=O)=O)cc1	nt	-12.6	30.8*	-4.9	-5.9	-1.4	-2.9
COC(=O)[C@H]1[C@H](CO)[C@H]2Cn3c(ccc(C4=CCCCC4)c3=O)[C@H]2N1C(=O)C1CCCC1	nt	nt	1.7	-2.9	nt	nt	nt
COC(=O)C[C@H]1C[C@@H]2c3cc(NS(=O)(=O)c4ccccc4)ccc3O[C@@H]2[C@H](CO)O1	nt	-4.9	-5.0	-0.1	nt	-0.6[16.7 µM]	nt
O=C(NCc1cccnc1)C1CC(c2cccc(Br)c2)=NO1 (centres undefined)	-1.0	-21.1	22.9*	-6.8	nt	2.8	-5.5
COc1cc(C2=NOC(C(=O)NCc3cccnc3)C2)cc(OC)c1OC (centres undefined)	-1.9	-29.7	-5.4	-3.9	5.0	-2.2	nt

From PubChem
